From patent US11911434B2, “Stable antibody-drug conjugate, preparation method therefor, and use thereof” (GENEQUANTUM HEALTHCARE (SUZHOU) CO., LTD., priority 2014, dated 2024) come the findings set out here.

pIC50: −log10 of the molar value. “Also recorded” adds a separate entry of the source.

In one data set the test system is HCC-1954 cells. As to the kind of experiment: Tumor cell proliferation, CellTiter Glo, HCC1954. Type of data set: cell-based, human. The conditions noted are these: HCC-1954, 48-96 h; read-out: Inhibition effects on tumor cell proliferation (IC50). The method, then: (§1) To study the selective inhibition of a candidate ADC on tumor cells (e.g. ErbB2/Her2 high expressing tumor cells), the following assays were used to determine the cytotoxicity or proliferation inhibition of candidate ADCs: the mammalian tumor cells with tumor-associated antigen or receptor protein (e.g. breast cancer cells with high or low ErbB2/Her2 expression) were incubated with the candidate ADC for about 12-120 h, the Cell Titer Glo method was used to determine the cell viability.
(§2) 1) ErbB2/Her2 low expressing human breast cancer cells MCF-7, MDA-MB-468, ErbB2/Her2 high expressing human breast cancer cells BT-474, SK-BR-3, HCC1954, human ovarian cancer cells SK-OV-3, human gastric cancer cell NCI-N87 was seeded into a 96-well plate at 100 μl/well (containing 1000 to 10000 cells), and incubated in a cell culture incubator overnight (37° C., 5% CO2, 95% air, 100% humidity).
(§3) 3) The cell plate was removed from the incubator, equilibrated for about 30 minutes to room temperature. Each well was added 100 μl CellTiter Glo reagent, shocked in an oscillator for 2 min, then left stand for 10 min at room temperature in dark, the relative light units (RLU) is measured with a BioTech Gen5 microplate reader.

In another data set the test system is SK-OV-3 cells. As to the kind of experiment: Tumor cell proliferation, CellTiter Glo, SK-OV-3. It is filed as cell-based, human. The note with it: SK-OV-3, 48-96 h; read-out: Inhibition effects on tumor cell proliferation (IC50). The method, then: as §1, §2, §3
A further data set relates to SK-BR-3 cells. In words: Tumor cell proliferation, CellTiter Glo, SK-BR-3. It is filed as cell-based, human. The note with it: SK-BR-3, 48-96 h; read-out: Inhibition effects on tumor cell proliferation (IC50). The procedure:
as §1, §2, §3

Data set [1] can be described thus: Single injection acute toxicity study in rats. Type of data set: in vivo, SD rats. The method, then: The acute toxicity of the candidate ADC was evaluated in rats. Female Sprague-Dawley rats were injected with high doses (60 mg/kg or more) of ADCs, and impact of drugs on the animals was then observed and analyzed, and index such as body weight, clinical signs, hematology, clinical biochemistry and histopathology were studied to evaluate the toxicity of the candidate ADC.
The drug was administered by a single injection via tail vein. The administration dose is 10 ml/kg, and the administration rate is about 1 ml/min. During the experiment, the animals were subjected to clinical inspection, and were examined for body weight, food intake, blood count, blood biochemical indices. At the end of the experiment, all animals were euthanized, anatomized and checked systematically. All major organs were weighed, organ coefficient was calculated and any visible lesions were recorded.

Another data set deals with NCI-N87 cells. As to the kind of experiment: Tumor cell proliferation, CellTiter Glo, NCI-N87. The note with it: NCI-N87, 48-96 h; read-out: Inhibition effects on tumor cell proliferation (IC50). Type of data set: cell-based, human. The procedure:
as §1, §2, §3

Another data set concerns BT-474 cells. As to the kind of experiment: Tumor cell proliferation, CellTiter Glo, BT-474. Type of data set: cell-based, human. The note with it: BT-474, 48-96 h; read-out: Inhibition effects on tumor cell proliferation (IC50). The procedure: as §1, §2, §3

In the case of GQ1001, the pIC50 in the data set with HCC-1954 cells was 9.83; with SK-OV-3 cells, 9.84; with SK-BR-3 cells, 9.85; in the data set on NCI-N87 cells, 9.95; in the data set with BT-474 cells, 9.39. Further, the “hematology and clinical biochemical analysis: toxic reaction” value in data set [1] (GQ1001 6 and 60 mg/kg) was “no significant toxic reaction”. Besides, the “systematic anatomy and gross observation” value in data set [1] (each GQ1001 dose group (6, 60 mg/kg)) was “no abnormal changes”. Also, in data set [1] (equivalent doses of 60 mg/kg, 60 mg/kg), the “acute toxicity compared with Kadcyla” value was “significantly less than Kadcyla; also recorded: significantly lower than that of Kadcyla”. Moreover, the clinical abnormality result in data set [1] (female SD rats, single tail vein injection, GQ1001 6 and 60 mg/kg) was “no clinical abnormality”. Besides, in data set [1] (single tail vein injection, GQ1001 6 and 60 mg/kg, Kadcyla 60 mg/kg), the “ALT and AST level compared with vehicle control” value was “no significant change”. Further, in data set [1] (single tail vein injection, GQ1001 6 and 60 mg/kg, Kadcyla 60 mg/kg (D2-D12)), the “body weight change compared with vehicle control” value was “no significant difference; also recorded: no change in body weight”.
